Broadly, the EC50 is the concentration that produces a half-maximal response.

Amino acid sequences for entries named in this document (tags omitted).
UniProt P41145, whole entry: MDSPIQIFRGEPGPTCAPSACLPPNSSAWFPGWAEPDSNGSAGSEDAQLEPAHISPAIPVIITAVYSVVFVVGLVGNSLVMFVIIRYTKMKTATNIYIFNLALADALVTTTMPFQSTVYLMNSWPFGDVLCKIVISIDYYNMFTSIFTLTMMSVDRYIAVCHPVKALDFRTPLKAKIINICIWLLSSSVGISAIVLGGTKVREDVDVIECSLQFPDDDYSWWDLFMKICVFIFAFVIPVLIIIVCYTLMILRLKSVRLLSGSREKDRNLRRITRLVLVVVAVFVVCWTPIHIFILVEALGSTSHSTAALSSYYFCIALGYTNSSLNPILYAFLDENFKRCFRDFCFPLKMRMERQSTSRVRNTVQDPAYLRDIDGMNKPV

The target of this test is Kappa receptor (Homo sapiens (Human), UniProt P41145). Nature of the test: cAMP test of Kappa receptor. The conditions noted are these: read-out: EC50 value of the compound to Kappa receptor; KOR cAMP cells. The method, then:
Experimental Embodiment 1: cAMP Test of Kappa Receptor
Experimental buffer: 1*HBSS (+/+) (SIGMA #H1387)+20 mM HEPES (LONZA #17-737E)
Stimulation buffer (STB): 200 μM IBMX (SIGMA #I7018) and 3 μM NKH477 (SIGMA #N3290) experimental buffer
Experimental Methods and Steps
The compound powder was dissolved with DMSO (Amresco #0231), and the concentration of the compound solution was 10 mM. 1 μL of the test compound was taken, and 49 μL of DMSO was added thereto, and the mixture was diluted to 200 μM of solution.
A LDV 384-well plate was taken, and the compound solution diluted in the previous step was respectively added to wells A1 to H1; a pre-prepared 200 μM of U-50488 (Tocris #0495/25) was taken and added to well P1; 10.8 μL of DMSO was added to each well of A2 to A11, […], and P2 to P11, respectively, and the mixture was centrifuged at 1000 rpm for 30 seconds.
Continuous gradient dilutions of compounds were performed with bravo, and the first column of LDV plate prepared in the previous step was taken as the initial concentration column, and 5 μL was sucked into the next column each time and blown and mixed evenly. […]
Cell density was counted and adjusted on a cell counter to 1.5*10^6 cells/mL. […]
Experimental plates were read with Envision.

Turning to `CNC(=O)NC1CCN(C(=O)[C@@H](CCCCN)NC(=O)[C@@H](CC2CC2)NC(=O)[C@@H](Cc2ccccc2)NC(=O)CNC[C@H](C)c2ccccc2)CC1`, the EC50 is 40 pM.

Source of the values: patent US12479800B2, “Phenylpropionamide compound and use thereof” (MEDSHINE DISCOVERY INC., priority 2020, dated 2025).
